The experiment addresses SLC26A3 (Mus musculus, UniProt Q9WVC8). In words: SLC26A3 inhibition, concentration-dependence (high throughput screening and structure-activity studies). The format is cell-based. Conditions: Class I, Table 5.

Protein sequences, listed by entry. Tags and fused reporters are not part of them.
UniProt Q9WVC8, whole entry: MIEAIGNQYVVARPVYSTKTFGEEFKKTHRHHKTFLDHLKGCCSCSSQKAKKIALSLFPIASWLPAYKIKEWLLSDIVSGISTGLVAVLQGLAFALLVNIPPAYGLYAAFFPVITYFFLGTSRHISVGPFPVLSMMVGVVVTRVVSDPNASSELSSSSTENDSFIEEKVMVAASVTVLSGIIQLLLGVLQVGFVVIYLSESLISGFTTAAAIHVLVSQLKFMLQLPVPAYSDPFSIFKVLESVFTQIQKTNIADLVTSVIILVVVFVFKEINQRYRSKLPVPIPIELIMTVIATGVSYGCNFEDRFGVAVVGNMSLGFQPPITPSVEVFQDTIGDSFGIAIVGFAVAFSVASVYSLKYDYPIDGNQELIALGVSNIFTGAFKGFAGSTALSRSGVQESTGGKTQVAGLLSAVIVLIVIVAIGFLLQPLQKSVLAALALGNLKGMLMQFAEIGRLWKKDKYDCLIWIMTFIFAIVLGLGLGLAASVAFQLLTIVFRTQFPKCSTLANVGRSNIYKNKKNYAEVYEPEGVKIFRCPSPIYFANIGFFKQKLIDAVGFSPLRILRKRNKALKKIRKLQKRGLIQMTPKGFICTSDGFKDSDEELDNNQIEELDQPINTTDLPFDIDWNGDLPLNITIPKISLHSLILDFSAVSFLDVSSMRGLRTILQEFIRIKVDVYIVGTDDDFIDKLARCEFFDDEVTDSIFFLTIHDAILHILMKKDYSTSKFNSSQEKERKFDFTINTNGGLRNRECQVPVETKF

The compound `O=C(Nc1cccc(-c2nc3ccccc3c(=O)o2)c1)c1ccc(Cl)cc1` yielded an IC50 of 0.26 µM.
Compound `O=C(Nc1cccc(-c2nc3ccccc3c(=O)o2)c1)c1ccccc1Br` gave an IC50 of 0.1 µM.
